## Measured affinities in a library of Ab-14 heavy chain variants

Data: MIT Lincoln Laboratory AlphaSeq set, Li et al. 2023, doi:10.1038/s41467-023-39022-2, as distributed in FLAb.

Target: peptide PDVDLGDISGINAS, taken from heptad repeat 2 (HR2) of SARS-CoV-2 spike.

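The starting antibody came from a phage panning campaign against this peptide. Designed CDR sequences, proposed from the first random library and measured here. Their group label is 14H_GP_HC (GP: Gaussian process model; HC: hill climbing; a sequence that several methods proposed may carry one label only). The assay is AlphaSeq: two haploid yeast populations carry antibody and antigen on their surface. The frequency of each diploid, read from paired DNA barcodes, reflects how well the two displayed proteins bind. Scores were corrected for input abundance and mapped to Kd with protein pairs of known affinity run in the same pool. The assay was run in six technical replicates.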

The variants keep the light chain, the linker and the frameworks of Ab-14 (scFv order VH, a 15-residue (Gly4Ser)3 linker, VL).
VH: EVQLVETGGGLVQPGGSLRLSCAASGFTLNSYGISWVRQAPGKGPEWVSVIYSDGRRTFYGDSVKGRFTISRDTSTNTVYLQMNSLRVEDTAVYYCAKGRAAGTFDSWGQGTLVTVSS
VL: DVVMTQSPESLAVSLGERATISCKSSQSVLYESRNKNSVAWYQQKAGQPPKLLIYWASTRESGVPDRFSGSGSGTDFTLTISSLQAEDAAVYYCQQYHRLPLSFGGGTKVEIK

Each variant is given by its three heavy chain CDRs, as the data file delimits them; those of the parent are GFTLNSYGIS, VIYSDGRRTFYGDSVK, GRAAGTFDS. Scale: log10 of Kd in nM, estimated from mating counts; low values are strong binders. Where no diploid with the target was found in that replicate, the entry reads "ND": below detection, most likely a poor binder, though not proof of it.

{"CDR-H1": "GFSLNSYGIS", "CDR-H2": "VIYSDGRRTFYTDSVK", "CDR-H3": "GMGAGTFDS", "log10 Kd, replicates": "ND ND ND ND 2.23 ND", "control signals": "0 of 18"}
{"CDR-H1": "GFDLNSYGIS", "CDR-H2": "VIYSDGRRTFYGDSVK", "CDR-H3": "GRTAGKFNS", "log10 Kd, replicates": "ND ND ND ND ND ND", "control signals": "0 of 18"}
{"CDR-H1": "GFDLNSYGIS", "CDR-H2": "VIYSDGRRTFYGDSVK", "CDR-H3": "GQAAGHFNS", "log10 Kd, replicates": "1.76 1.98 0.27 ND 1.32 1.46", "control signals": "0 of 18"}
{"CDR-H1": "GFQLNTYGIS", "CDR-H2": "VIYSDGRRTFYGDSVK", "CDR-H3": "GRAAGTFDS", "log10 Kd, replicates": "ND 1.21 1.11 0.75 ND ND", "control signals": "0 of 18"}
{"CDR-H1": "GFTLDSYGIS", "CDR-H2": "VIYSDGRRTFYIDSVK", "CDR-H3": "GQLAGTFDS", "log10 Kd, replicates": "1.38 ND 1.79 2.84 1.00 1.63", "control signals": "0 of 18"}
{"CDR-H1": "GFDLNSYGIS", "CDR-H2": "VIYSDGRRTFYGDSVK", "CDR-H3": "GRMAGTFES", "log10 Kd, replicates": "1.81 1.87 1.54 2.15 1.31 1.52", "control signals": "0 of 18"}
{"CDR-H1": "GFQLNSYGIS", "CDR-H2": "VIYSDGRRTFYGDSVK", "CDR-H3": "GRSAGTFDS", "log10 Kd, replicates": "ND ND ND ND ND ND", "control signals": "0 of 18"}
{"CDR-H1": "GFTLDSYGIS", "CDR-H2": "VIYADGRRTFYGDSVK", "CDR-H3": "GQAAGTFSS", "log10 Kd, replicates": "-0.10 0.13 0.44 -0.08 0.08 0.27", "control signals": "0 of 18"}
{"CDR-H1": "GFWLNDYGIS", "CDR-H2": "VIYSDGRRTFYADSVK", "CDR-H3": "GRAAGTFDA", "log10 Kd, replicates": "0.77 0.65 ND 0.72 0.30 0.92", "control signals": "0 of 18"}
{"CDR-H1": "GFDLNSYGIS", "CDR-H2": "VIYSDGRRTFYDDSVK", "CDR-H3": "GQGAGTFDS", "log10 Kd, replicates": "ND ND ND ND ND ND", "control signals": "0 of 18"}
{"CDR-H1": "GFTLNEYGIS", "CDR-H2": "VIYSDGRRTFYGDSVK", "CDR-H3": "GRIAGTFNS", "log10 Kd, replicates": "ND ND ND ND ND ND", "control signals": "0 of 18"}
{"CDR-H1": "GFDLNSYGIS", "CDR-H2": "VIYSDGRRTFYGDSVK", "CDR-H3": "GRAAGSFNV", "log10 Kd, replicates": "ND 1.38 ND ND ND ND", "control signals": "0 of 18"}
{"CDR-H1": "GFTLNDYGIS", "CDR-H2": "VIYSDGRRTFYSDSVK", "CDR-H3": "GRAAGMFDS", "log10 Kd, replicates": "ND 2.50 1.84 2.30 ND ND", "control signals": "0 of 18"}
{"CDR-H1": "GFTLNEYGIS", "CDR-H2": "VIYSDGRRTFYGDSVK", "CDR-H3": "GRAALTFEL", "log10 Kd, replicates": "ND ND ND ND ND ND", "control signals": "0 of 18"}
{"CDR-H1": "GNTLNEYGIS", "CDR-H2": "VIYSDGRRTFYTDSVK", "CDR-H3": "GRQAGTFDS", "log10 Kd, replicates": "0.97 1.34 0.28 0.54 0.90 0.90", "control signals": "0 of 18"}
{"CDR-H1": "GFGLNEYGIS", "CDR-H2": "VIYSDGRRTFYGDSVK", "CDR-H3": "GRAAGTFDV", "log10 Kd, replicates": "0.93 0.09 0.26 0.58 -0.03 0.23", "control signals": "0 of 18"}
{"CDR-H1": "GFSLNMYGIS", "CDR-H2": "VIYSDGRRTQYADSVK", "CDR-H3": "GRAAGTFDS", "log10 Kd, replicates": "0.17 0.93 0.73 -0.12 0.29 0.17", "control signals": "0 of 18"}
{"CDR-H1": "GFTLNEYGIS", "CDR-H2": "VIYSDGRRTFYIDSVK", "CDR-H3": "GRDAGTFDS", "log10 Kd, replicates": "ND ND ND ND ND ND", "control signals": "0 of 18"}
{"CDR-H1": "RFTLNSYGIS", "CDR-H2": "VIYSDGRRTFYIDSVK", "CDR-H3": "GRTAGTFDS", "log10 Kd, replicates": "ND ND ND ND ND ND", "control signals": "0 of 18"}
{"CDR-H1": "GFTLNDYGIS", "CDR-H2": "VIYSDGRRTFYGDSVK", "CDR-H3": "GRLAGTFDI", "log10 Kd, replicates": "0.99 0.55 1.17 -0.07 0.66 0.14", "control signals": "0 of 18"}
{"CDR-H1": "GFTLNEYGIS", "CDR-H2": "VIYSDGRRTFYGDSVK", "CDR-H3": "GRAAGTFMK", "log10 Kd, replicates": "ND ND ND ND ND ND", "control signals": "0 of 18"}
{"CDR-H1": "GFTLDMYGIS", "CDR-H2": "VIYSDGRRTFYGDSVK", "CDR-H3": "GRTAGTFDS", "log10 Kd, replicates": "ND 0.90 ND 0.85 1.14 -0.54", "control signals": "0 of 18"}
{"CDR-H1": "GFDLNSYGIS", "CDR-H2": "VIYSDGRRTFYDDSVK", "CDR-H3": "GQKAGTFDS", "log10 Kd, replicates": "ND ND ND ND ND ND", "control signals": "0 of 18"}
{"CDR-H1": "GFTLNEYGIS", "CDR-H2": "VIYSDGRRTFYGDAVK", "CDR-H3": "GRTAGTFIS", "log10 Kd, replicates": "ND ND ND ND ND ND", "control signals": "0 of 18"}
{"CDR-H1": "GFSLNEYGIS", "CDR-H2": "VIYSDGRRTFYGDSVK", "CDR-H3": "GEAAGTFDR", "log10 Kd, replicates": "0.48 0.34 0.15 0.26 0.24 0.33", "control signals": "0 of 18"}
{"CDR-H1": "GFGLNDYGIS", "CDR-H2": "VIYSDGRRTYYGDSVK", "CDR-H3": "GRAAGTFDS", "log10 Kd, replicates": "1.32 1.01 0.45 1.05 0.34 1.06", "control signals": "1 of 18 (2.00)"}
{"CDR-H1": "GFTLNEYGIS", "CDR-H2": "VIYSDGRRTFYGDSVK", "CDR-H3": "GRAAGTFST", "log10 Kd, replicates": "ND 1.10 2.00 1.98 1.23 ND", "control signals": "1 of 18 (1.60)"}
{"CDR-H1": "GFVLNDYGIS", "CDR-H2": "VIYSDGRRTMYIDSVK", "CDR-H3": "GRAAGTFDQ", "log10 Kd, replicates": "2.10 ND 1.20 1.44 1.23 ND", "control signals": "0 of 18"}
{"CDR-H1": "GNTLNEYGIS", "CDR-H2": "VIYSDGRRTFYIDSVK", "CDR-H3": "GRCAGTFDS", "log10 Kd, replicates": "ND ND ND ND ND ND", "control signals": "0 of 18"}

The first 3 variants above that were never detected:

CDR-H1	CDR-H2	CDR-H3	log10 Kd, replicates	control signals
GFDLNSYGIS	VIYSDGRRTFYGDSVK	GRTAGKFNS	ND ND ND ND ND ND	0 of 18
GFQLNSYGIS	VIYSDGRRTFYGDSVK	GRSAGTFDS	ND ND ND ND ND ND	0 of 18
GFDLNSYGIS	VIYSDGRRTFYDDSVK	GQGAGTFDS	ND ND ND ND ND ND	0 of 18

The authors averaged sequences with at least three values out of six and counted those with two or fewer as poor binders. Empty control strains, which show no peptide, gave a signal in 1% of pairings with all heavy chain designs; the median was 2.08 and 95% of these signals were weaker than 0.84. No background was subtracted. For each scFv, signals with the empty controls are counted beside the result, with their mean in brackets. The range of this assay differs from that of the first round, and the authors advise against merging the two.